Data taken from ChEMBL document CHEMBL3797186, “Single Residue Substitutions That Confer Voltage-Gated Sodium Ion Channel Subtype Selectivity in the NaV1.7 Inhibitory Peptide GpTx-1” (J Med Chem, 2016).
pIC50: −log10 of the molar value.

Amino acid sequences for entries named in this document (tags omitted).
UniProt Q15858, whole entry: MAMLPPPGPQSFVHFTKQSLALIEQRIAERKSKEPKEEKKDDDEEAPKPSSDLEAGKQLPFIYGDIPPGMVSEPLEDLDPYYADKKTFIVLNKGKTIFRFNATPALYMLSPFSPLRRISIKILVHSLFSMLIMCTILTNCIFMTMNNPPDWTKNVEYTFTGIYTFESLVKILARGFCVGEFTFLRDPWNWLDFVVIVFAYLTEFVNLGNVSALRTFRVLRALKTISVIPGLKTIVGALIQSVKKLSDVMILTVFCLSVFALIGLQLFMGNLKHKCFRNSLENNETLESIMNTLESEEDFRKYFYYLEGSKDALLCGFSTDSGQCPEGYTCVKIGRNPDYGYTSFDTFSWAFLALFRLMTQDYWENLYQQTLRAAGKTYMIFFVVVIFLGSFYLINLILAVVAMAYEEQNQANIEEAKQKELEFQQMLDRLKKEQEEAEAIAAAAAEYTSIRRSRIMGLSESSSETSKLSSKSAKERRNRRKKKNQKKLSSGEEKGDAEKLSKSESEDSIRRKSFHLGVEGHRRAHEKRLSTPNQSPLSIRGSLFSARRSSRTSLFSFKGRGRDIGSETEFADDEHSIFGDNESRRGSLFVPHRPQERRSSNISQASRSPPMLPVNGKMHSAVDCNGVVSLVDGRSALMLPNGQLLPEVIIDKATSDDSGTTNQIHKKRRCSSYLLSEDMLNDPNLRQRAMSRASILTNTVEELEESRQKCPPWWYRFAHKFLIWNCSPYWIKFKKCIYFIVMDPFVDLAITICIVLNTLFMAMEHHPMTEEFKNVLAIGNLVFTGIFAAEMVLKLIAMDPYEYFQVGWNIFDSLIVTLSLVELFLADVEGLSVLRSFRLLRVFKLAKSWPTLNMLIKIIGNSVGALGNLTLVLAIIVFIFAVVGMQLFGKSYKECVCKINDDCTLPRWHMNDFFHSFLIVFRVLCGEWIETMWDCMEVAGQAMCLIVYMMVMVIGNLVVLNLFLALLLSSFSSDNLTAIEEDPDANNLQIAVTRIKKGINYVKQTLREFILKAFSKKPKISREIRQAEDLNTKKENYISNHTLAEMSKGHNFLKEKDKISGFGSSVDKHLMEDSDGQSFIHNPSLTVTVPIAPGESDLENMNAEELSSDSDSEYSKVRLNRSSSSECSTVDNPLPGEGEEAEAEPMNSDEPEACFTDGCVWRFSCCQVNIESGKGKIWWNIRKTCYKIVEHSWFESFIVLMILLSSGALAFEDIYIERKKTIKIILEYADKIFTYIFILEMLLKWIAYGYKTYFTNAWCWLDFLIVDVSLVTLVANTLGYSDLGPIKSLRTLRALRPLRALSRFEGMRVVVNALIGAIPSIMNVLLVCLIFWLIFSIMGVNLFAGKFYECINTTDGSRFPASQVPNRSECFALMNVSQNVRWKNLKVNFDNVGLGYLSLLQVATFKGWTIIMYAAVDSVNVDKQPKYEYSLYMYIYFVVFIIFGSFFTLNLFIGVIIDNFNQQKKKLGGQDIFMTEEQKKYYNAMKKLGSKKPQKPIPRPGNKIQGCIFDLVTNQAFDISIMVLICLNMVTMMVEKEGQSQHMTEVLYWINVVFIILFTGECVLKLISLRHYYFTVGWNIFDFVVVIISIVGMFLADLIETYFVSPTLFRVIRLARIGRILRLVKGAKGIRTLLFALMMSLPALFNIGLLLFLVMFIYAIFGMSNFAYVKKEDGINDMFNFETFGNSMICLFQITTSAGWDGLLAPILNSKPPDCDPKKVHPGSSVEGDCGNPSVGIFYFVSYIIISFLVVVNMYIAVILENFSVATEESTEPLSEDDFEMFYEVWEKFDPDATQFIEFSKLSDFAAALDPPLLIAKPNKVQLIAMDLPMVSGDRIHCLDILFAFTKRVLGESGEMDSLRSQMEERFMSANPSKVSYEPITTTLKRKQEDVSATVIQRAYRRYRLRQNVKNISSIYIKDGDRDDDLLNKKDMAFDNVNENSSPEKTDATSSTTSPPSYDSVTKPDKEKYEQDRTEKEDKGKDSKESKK

Biological target: Sodium channel protein type 9 subunit alpha (Homo sapiens, UniProt Q15858)
Assay: Inhibition of human Nav1.7 expressed in HEK293 cells assessed as inward peak current by ion-works quattro patch clamp electrophysiology method
Type: cell-based

CC[C@H](C)[C@@H]1NC(=O)[C@@H]2CSSC[C@@H]3NC(=O)[C@H](C(C)C)NC(=O)[C@H](CC(C)C)NC(=O)[C@H](CC(N)=O)NC(=O)[C@@H]4CCCN4C(=O)[C@H](CCCNC(=N)N)NC(=O)[C@H](CSSC[C@H](NC(=O)[C@@H](N)CC(=O)O)C(=O)N[C@@H](CC(C)C)C(=O)NCC(=O)N[C@@H](Cc4ccccc4)C(=O)N[C@@H](CCSC)C(=O)N[C@@H](CCCNC(=N)N)C(=O)N[C@@H](CCCCN)C(=O)N2)NC(=O)[C@H](CSSC[C@@H](C(=O)N[C@@H](CCCCN)C(=O)N[C@@H](Cc2ccc(O)cc2)C(=O)N[C@H](C(=O)N[C@@H](Cc2ccccc2)C(N)=O)C(C)C)NC(=O)[C@H](Cc2cccc4ccccc24)NC(=O)[C@H](CCCCN)NC(=O)[C@H](Cc2cnc[nH]2)NC(=O)[C@H]([C@@H](C)O)NC(=O)[C@H](CCCNC(=N)N)NC(=O)[C@H](CO)NC3=O)NC(=O)[C@H](CCCCN)NC(=O)[C@H](CC(=O)O)NC(=O)[C@H](CC(N)=O)NC(=O)[C@H](CC(=O)O)NC(=O)[C@@H]2CCCN2C1=O
pIC50: 6.40
